Earlier results, collected in patent US9173884B2, “Inhibitors of phosphodiesterase 11 (PDE11)” (TRUSTEES OF BOSTON COLLEGE, priority 2011, dated 2015).

Molecular target: PDE11 (Homo sapiens (Human), UniProt Q9HCR9)
Details: reference 22; cited from earlier work

In the case of `CN1CC(=O)N2[C@H](c3ccc4c(c3)OCO4)c3[nH]c4ccccc4c3C[C@@H]2C1=O` [Tadalafil], the “activity against PDE11” value is given as “significant activity”.
